# Screens (PubChem BioAssay)
# TCR act: activates T cell receptor signaling | primary human leukocytes, anti-CD3, IL-2 HTRF, 48 h | Potency, µM (doses to about 9.22 µM), usual class: activators | 330,000 tested, under 10 active | AID 504894
#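 TCR engagement came from a-CD3 beads alone, with compounds added to primary human leukocytes for 48 hr. Secreted IL-2 bridged europium cryptate- and d2-labelled anti-IL-2 antibodies, giving FRET emission at 665nm after 320nm excitation.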
# RXFP1 ag: activates the human relaxin receptor RXFP1; Q9HBX9; HEK293T-RXFP1 cAMP TR-FRET, 30 min; response scale: percent of porcine relaxin response, buffer zero; Potency, µM (doses to about 57.5 µM), actives largely listed as activators; 370,000 compounds, 0.3% hits; further: nearly all actives have a fitted effect of over 60% in size
#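 HEK293T cells stably expressing RXFP1 were pretreated with the PDE4 inhibitor Ro 20174, exposed to compounds for 30 min at 37C, lysed, and cAMP was read by TR-FRET. Data normalized to buffer (basal) and 29 nM porcine relaxin (100%).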
# RXFP1 antagonist: RXFP1 (human) relaxin receptor antagonism; Q9HBX9; HEK293-RXFP1, relaxin-stimulated cAMP HTRF, 30 min; active compounds read low; activity change, negative = inhibition, % at 57.5 µM; 350,000 compounds, 0.59% hits;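 active means activity change of -60% or lower, but not beyond a set lower limit; inconclusive means change between -60% and -40%, or beyond the set limit; inactive means change above -40%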
# IL-2 act: activators of IL-2 | activation, % (series mostly up to about 46 µM) | AID 652025 | IL-2 activation reporter assay, cell-based qHTS; stimulated with anti-CD3/CD4/CD28 beads; in transgenic mouse T cells | 360,000 compounds, 0.065% hits; in the data active means activation above about 50%; inconclusive means mostly about 30% to 49%
#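 Using fluorescent plate cytometry, EGFP and DsRed are detected in transgenic mouse T cells stimulated 18 h at 37 degrees C with antibody-coated beads after 60 min compound pretreatment.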
# miR-21 reporter: miR-21 reporter, rising signal | 340,000 tested, under 10 active | AID 2288 | HeLa miR-21 FLuc reporter, luciferase, 48 h | Potency, µM (titrated, usually from 38.3 µM); active = well fitted rising curve with a large enough effect; inconclusive = small, poorly fitted or top-dose-only effect; inactive = no such curve, though single readings can be large or run the other way;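 further: miR-21 action dims this reporter so a rising signal means less miR-21 action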
#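 Using DMEM plus 10% FBS, HeLa miR-21-FLuc cells are incubated with test compounds (final up to about 40uM) for 48 hours; firefly luciferase signal is then imaged following reagent-mediated lysis.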
# PINK1 expr mod: changes PINK1 expression. PINK1 immunofluorescence, high-content cytometry, 24 h. Potency, µM (highest dose often 76.6 µM), actives largely listed as activators. 410,000 compounds, 0.2% hits; active means well fitted activation curve with a large enough effect; inconclusive means small, poorly fitted or top-dose-only effect; cell line not stated here; further: nearly all actives have a fitted effect of over 65% in size
#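 Compound titrations (5 concentrations, 24 h) on a stable cell line; DMSO and CCCP controls. Endpoint: fixed-cell PINK1 immunofluorescence with mitochondrial, cell and nuclear markers, scanned by microplate cytometer.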
# A number is an active result; 0 = inactive; ? = inconclusive; - = no result. A selection: hits, their analogues and other compounds. The true share with any hit is near 0.78%. Unless noted, the call rests on the fitted dose curve; in most records, active means well fitted curve in the direction sought with a large enough effect; inconclusive means small, poorly fitted or top-dose-only effect, or another doubt; inactive means no such curve, though single readings can be large; an effect the other way counts as inactive or inconclusive.
SMILES,TCR act,RXFP1 ag,RXFP1 antagonist,IL-2 act,miR-21 reporter,PINK1 expr mod
COC(=O)c1ccc2c(=O)n(CCCN3CCOCC3)c(=S)[nH]c2c1,0,0,0,0,0,-
COc1cc2[nH]c(=S)n(CCCN3CCOCC3)c(=O)c2cc1OC,0,0,-68,0,0,0
COc1cc2[nH]c(=S)n(CC3CCCO3)c(=O)c2cc1OC (stereo not given),0,0,-94,0,0,0
O=C(NCC1CCCO1)c1ccc2c(=O)n(CC3CCCO3)c(=S)[nH]c2c1 (stereo not given),0,0,0,0,0,0
O=C(Nc1ccc(F)cc1)c1ccc2c(=O)n(CC3CCCO3)c(=S)[nH]c2c1 (stereo not given),0,0,-68,0,0,0
Cc1cnc(SCc2ccccn2)nc1C1CCCN(C(=O)c2ccc3c(c2)OCO3)C1 (stereo not given),-,-,-,-,-,0
COc1cc(=O)n2c(c1C(=O)NCc1nccs1)CCN(Cc1ccccc1F)CC2,-,-,-,-,-,0
COc1ccccc1Nc1c2c(nc3ccc(NC(=O)c4cccc(F)c4)cc13)CCCC2,-,0,-75,-,0,0
COc1ccccc1Nc1c2c(nc3ccc(NC(=O)/C=C/c4cccc(OC)c4OC)cc13)CCCC2,-,0,0,-,0,0
Cc1oc(-c2ccccc2NC(=O)c2ccsc2)nc1CN(C)CC1CC=CCC1 (stereo not given),-,-,-,-,-,0
CC(=O)N(c1onc(C)c1C)S(=O)(=O)c1ccc(N)cc1,-,-,0,-,-,-
Cc1ccc(-c2ccnc(-n3ncc(C(=O)NC[C@@H]4CCCN5CCCC[C@H]45)c3C3CC3)n2)o1,-,-,-,-,-,0
CCOC(=O)c1c(NC(=O)c2cc(=O)c3c(C)cc(C)cc3o2)sc2c1CCC2,-,0,0,-,0,32µM
CCOC(=O)c1c(NC(=O)c2cc(=O)c3c(C)cc(C)cc3o2)sc(C)c1C,-,0,0,-,0,0
COc1cccc(C(=O)NCc2nc(-c3cccc(NC(=O)c4ccoc4C)c3)oc2C)c1,-,-,-,-,-,0
COC(=O)C(C)(C)ONC(=O)Nc1ccccc1Br,0,0,-,0,0,0
COC(=O)C(C)(C)ONC(=O)Nc1ccccc1Cl,0,0,-65,0,0,0
CCC(C)NCCCOc1cc(Cl)ccc1Cl (stereo not given),0,0,0,0,0,0
CCC(C)NCCOCCOc1ccc(Cl)c2ccccc12 (stereo not given),0,0,-78,0,?,0
CCC(C)NCCOCCOc1ccc(Cl)c(C)c1C (stereo not given),0,0,-68,0,0,0
C=CCc1cc(Cl)ccc1OCCOCCNC(C)CC (stereo not given),-,0,?,0,0,0
Cc1cc(CNC(=O)c2cnn(-c3ncc4c(n3)-c3ccccc3CCC4)c2C2CC2)on1,-,-,-,-,-,0
COC(=O)c1c(OCc2cccnc2)cc(=O)n2c1CCN(Cc1cc3c(cc1Cl)OCO3)CC2,-,-,-,-,-,0
COc1ccccc1C(=O)Nc1cccc(N2CCC(NCc3cnn(-c4ccccc4)n3)CC2)c1,-,-,-,-,-,0
CCN(CC(=O)Nc1ccccc1OC)C(=O)/C=C/c1cccs1,0,0,-69,0,-,0
SMILES,TCR act,RXFP1 ag,RXFP1 antagonist,IL-2 act,miR-21 reporter,PINK1 expr mod
Cc1cc2c(c(-c3cnccn3)c1)OC(CNC(=O)c1c(F)cccc1Cl)C2 (stereo not given),-,-,-,-,-,0
Cc1nc(C)c(C(=O)NCc2nc(-c3cccc(NC(=O)c4ccccn4)c3)oc2C)s1,-,-,-,-,-,0
Nc1cc(Nc2ccccc2)c2nonc2c1[N+](=O)[O-],0,0,0,?,0,45µM
O=[N+]([O-])c1c(Nc2ccccc2)ccc2nonc12,0,0,0,0,0,0
Cc1ccccc1-c1cccc(CN2CCc3nnc(C(C)NC(=O)c4cccnc4)n3CC2)c1 (stereo not given),-,-,-,-,-,0
Cc1cc(=O)c(C(=O)NCCc2ccccn2)c2n1-c1ccccc1SC(c1cccs1)C2 (stereo not given),-,-,-,-,-,0
CCc1nc(N)nc(N)c1-c1ccc(N(C)Cc2ccccc2)c([N+](=O)[O-])c1,0,-,-103,0,-,0
